This note sets out measurements from US11395824B2, “5-HT2C receptor agonists and compositions and methods of use” (Arena Pharmaceuticals, Inc., priority 2015, dated 2022).

The chains behind the UniProt entries cited, without tags or fusion partners. Residues count along the entry.
UniProt P28223, whole entry: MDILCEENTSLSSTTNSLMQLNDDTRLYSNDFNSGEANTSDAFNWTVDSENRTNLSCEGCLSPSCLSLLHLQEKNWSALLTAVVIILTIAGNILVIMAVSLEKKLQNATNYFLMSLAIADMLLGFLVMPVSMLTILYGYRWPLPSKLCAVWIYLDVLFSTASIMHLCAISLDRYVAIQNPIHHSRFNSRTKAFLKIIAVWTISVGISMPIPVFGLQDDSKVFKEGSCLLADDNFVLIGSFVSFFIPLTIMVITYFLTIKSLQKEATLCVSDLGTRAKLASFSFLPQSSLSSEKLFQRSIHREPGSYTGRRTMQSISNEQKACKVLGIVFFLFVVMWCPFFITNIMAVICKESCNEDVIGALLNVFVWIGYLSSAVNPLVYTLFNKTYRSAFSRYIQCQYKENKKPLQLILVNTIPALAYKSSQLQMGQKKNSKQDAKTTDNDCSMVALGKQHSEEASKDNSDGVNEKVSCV
UniProt P28335, 33-458 limits assumed: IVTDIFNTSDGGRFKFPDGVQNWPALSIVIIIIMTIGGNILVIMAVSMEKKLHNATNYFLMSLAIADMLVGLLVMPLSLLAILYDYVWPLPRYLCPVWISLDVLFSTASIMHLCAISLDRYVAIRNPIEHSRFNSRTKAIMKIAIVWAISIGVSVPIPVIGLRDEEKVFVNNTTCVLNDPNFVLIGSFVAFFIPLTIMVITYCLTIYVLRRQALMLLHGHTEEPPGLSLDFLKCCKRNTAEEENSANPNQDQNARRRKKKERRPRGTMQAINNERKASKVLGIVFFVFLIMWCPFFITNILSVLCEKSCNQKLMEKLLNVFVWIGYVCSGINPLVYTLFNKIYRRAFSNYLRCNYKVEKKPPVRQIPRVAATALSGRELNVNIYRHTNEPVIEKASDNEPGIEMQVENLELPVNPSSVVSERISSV
UniProt P41595, whole entry: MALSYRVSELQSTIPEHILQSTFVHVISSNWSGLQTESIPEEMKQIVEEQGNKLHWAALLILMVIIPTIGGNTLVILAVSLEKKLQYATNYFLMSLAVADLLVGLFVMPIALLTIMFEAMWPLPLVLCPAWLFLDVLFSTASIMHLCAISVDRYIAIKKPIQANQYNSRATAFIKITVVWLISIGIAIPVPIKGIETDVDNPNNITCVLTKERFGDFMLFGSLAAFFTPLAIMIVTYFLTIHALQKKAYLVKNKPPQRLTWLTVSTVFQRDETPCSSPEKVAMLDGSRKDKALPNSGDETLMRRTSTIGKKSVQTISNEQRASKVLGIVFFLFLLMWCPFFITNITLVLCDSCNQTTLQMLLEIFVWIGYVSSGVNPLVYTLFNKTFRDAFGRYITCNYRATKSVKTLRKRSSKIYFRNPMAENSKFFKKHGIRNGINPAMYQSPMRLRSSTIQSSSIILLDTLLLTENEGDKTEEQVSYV

One may read the EC50 as the concentration at which the effect is half-maximal. For orientation: Ki means the equilibrium dissociation constant of an inhibitor or competing ligand from its target.

Test [1] has as its target T1, 5-HT2A receptor (Homo sapiens, UniProt P28223). Nature of the test: IP accumulation assay. To be noted: read-out: IP Accumulation EC50 (nM) 2A, [3H]inositol phosphates.
For test [2], the target named is T2, 5-HT2C receptor (Homo sapiens, UniProt P28335). Nature of the test: IP accumulation assay. To be noted: read-out: IP Accumulation EC50 (nM) 2C; HEK293 cells expressing recombinant 5-HT2C receptors, [3H]inositol phosphates, 2 h at 37° C.
Test [3] addresses T3, 5-HT2B receptor (Homo sapiens, UniProt P41595). Nature of the test: IP accumulation assay. To be noted: read-out: IP Accumulation EC50 (nM) 2B, [3H]inositol phosphates.
A short description of test [4]: Effect of compounds on food intake in the male Sprague Dawley rat. As to conditions: 1 hour following administration, relative to placebo, male Sprague Dawley rats.
The target of test [5] is T1, 5-HT2A receptor. Nature of the test: Radioligand binding assay with [125I]DOI. To be noted: read-out: DOI Binding Ki (nM) 2A, competition with [125I]DOI.
In test [6] the target is T2, 5-HT2C receptor. Nature of the test: Radioligand binding assay with [125I]DOI. As to conditions: read-out: DOI Binding Ki (nM) 2C; competition with [125I]DOI, membranes of HEK293 cells expressing recombinant 5-HT2C receptors.
The target in test [7] is T3, 5-HT2B receptor. Nature of the test: Radioligand binding assay with [125I]DOI. To be noted: read-out: DOI Binding Ki (nM) 2B, competition with [125I]DOI.

Take `CC1(C)CCC2CCNCc3cccc1c32` (single isomer, unassigned): the EC50 at 5-HT2A receptor [1], on 5-HT2C receptor [2] and on 5-HT2B receptor [3] was more than 100000 nM throughout.

For `Fc1ccc2c3c1C1(CC1)C1(CC1)CC3CCNC2` (single isomer, unassigned), the cumulative food intake result in test [4] (2 mg/kg PO), in test [4] (5 mg/kg PO) and in test [4] (10 mg/kg PO) was “significantly decreased” throughout. Moreover, the inhibitory constant (Ki) came to 20.9 nM at 5-HT2A receptor [5], 0.708 nM on 5-HT2C receptor [6] and 53.3 nM on 5-HT2B receptor [7]. For the same compound, the EC50 on 5-HT2A receptor [1] was 12400 nM; at 5-HT2C receptor [2] it was 7.6 nM; on 5-HT2B receptor [3], 1600 nM.

As for `c1cc2c3c(c1)C1(CC1)C1(CC1)CC3CCNC2` (single isomer, unassigned), the Ki worked out at 427 nM on 5-HT2A receptor [5], 29.6 nM on 5-HT2C receptor [6] and 647 nM at 5-HT2B receptor [7].

In the case of `c1cc2c3c(c1)C1(CCC3CCNC2)CC1` (single isomer, unassigned), the EC50 was more than 100000 nM on 5-HT2A receptor [1], 4860 nM at 5-HT2C receptor [2] and more than 100000 nM on 5-HT2B receptor [3].
